Results as given in publication PMC4605517 (PLoS ONE, 2015).

The chains behind the UniProt entries cited, without tags or fusion partners. Residues count along the entry.
UniProt Q16186, 1-150: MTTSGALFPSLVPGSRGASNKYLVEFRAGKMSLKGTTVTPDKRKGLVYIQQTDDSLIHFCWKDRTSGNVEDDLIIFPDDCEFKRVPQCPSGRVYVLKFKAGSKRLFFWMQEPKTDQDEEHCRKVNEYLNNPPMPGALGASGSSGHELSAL

What was measured:
hRpn13 Pru domain [1] = target: T1, hRpn13 Pru domain (Homo sapiens, UniProt Q16186); assay: 1H,15N HSQC NMR titration / chemical shift perturbation (CSP); assay type: binding; conditions: 25°C, pH 6.5
T1 construct: hRpn13 (1–150) and hRpn2 (916–953) samples were dialyzed extensively against ITC buffer; histidine tag (with PreScission protease site) (cleaved yes); made in house; host or cells: Escherichia coli (inferred: the method is called similar to that for hRpn2, which was expressed in E. coli)
Experimental: hRpn2 (916–953) was expressed in Escherichia coli as a fusion protein with GST and a PreScission protease cleavage site. Cells were lysed by sonication and cellular debris removed by centrifugation at 31,000g for 30 minutes. The cell lysate was incubated with glutathione S-sepharose resin and washed extensively with Buffer 1 (20 mM sodium phosphate, 300 mM NaCl, 2 mM DTT, pH 6.5). hRpn2 (916–953) was eluted from the resin and separated from GST by overnight incubation with 50 u/mL PreScission protease in Buffer 2 (20 mM sodium phosphate, 50 mM NaCl, 2 mM DTT, pH 6.5). […] Protein concentrations were estimated by using calculated extinction coefficients for each protein and absorbance at λ = 280nm. […] The molar ratio was then evaluated by LC-MS analysis and found to be 1:1 stoichiometry. […]
Chemical shift perturbation (CSP) analysis was done by comparing ^1H, ^15N HSQC experiments recorded on ^15N labeled hRpn2 (916–953) alone and with equimolar unlabeled hRpn13 Pru. CSP values were calculated according to Eq 1, as described in [24]. […]

hRpn13 Pru domain [2] = target: T1, hRpn13 Pru domain; assay: 1H,15N heteronuclear NOE experiments; conditions: 25°C
Experimental: (§1) hRpn2 (916–953) was expressed in Escherichia coli as a fusion protein with GST and a PreScission protease cleavage site. Cells were lysed by sonication and cellular debris removed by centrifugation at 31,000g for 30 minutes. The cell lysate was incubated with glutathione S-sepharose resin and washed extensively with Buffer 1 (20 mM sodium phosphate, 300 mM NaCl, 2 mM DTT, pH 6.5). hRpn2 (916–953) was eluted from the resin and separated from GST by overnight incubation with 50 u/mL PreScission protease in Buffer 2 (20 mM sodium phosphate, 50 mM NaCl, 2 mM DTT, pH 6.5). Further purification was achieved by size exclusion chromatography with a Superdex 75 column on an FPLC system. ^15N ammonium chloride, ^13C glucose, and D2O were used for isotope labeling. hRpn13 (1–150) was prepared as described by with a method similar to that described above for hRpn2, but with a histidine tag in place of GST and Talon resin used for affinity purification. PreScission protease was used for elution and removal of the tag and all buffers were identical. All NMR experiments were performed in Buffer 2, but with addition of 10% D2O and 0.1% sodium azide. Protein concentrations were estimated by using calculated extinction coefficients for each protein and absorbance at λ = 280nm. The hRpn2 (916–953):hRpn13 Pru domain complex was passed over a size exclusion column after mixing to remove any excess component. The molar ratio was then evaluated by LC-MS analysis and found to be 1:1 stoichiometry.
^1H, ^15N heteronuclear NOE experiments were performed with a four second saturation transfer or control period at 600 (for hRpn2 (916–953)) or 700 (for hRpn2 (916–953):hRpn13 Pru domain) MHz on spectrometers equipped with cryogenically cooled probes. Sample concentrations of 0.2 mM (hRpn2 (916–953)) or 0.4 mM (hRpn2 (916–953):hRpn13 Pru) were used and hRpn2 (916–953) was ^13C, ^15N, and 70% ^2H labeled; hRpn13 Pru was unlabeled. The hRpn2 (916–953):hRpn13 Pru sample was passed over a size exclusion column after mixing and LC-MS analysis determined the complex to be at 1:1 stoichiometry. The program relax was used for data analysis.

hRpn13 Pru domain [3] = target: T1, hRpn13 Pru domain; assay: Isothermal titration calorimetry (ITC); assay type: binding
Experimental: as §1, with “The hRpn2 (916–953):hRpn13 Pru domain complex was passed over a size exclusion column after mixing to remove any excess component.” left out, “stoichiometry. […]” for “stoichiometry.”

- Kd (hRpn13 Pru domain [3]; Fig 2B fit value, ITC, 25°C, pH 6.5, 20 μM hRpn13 Pru, 1-site binding mode): 12.3 ± 3.11 nM
- concentration of cytosolic proteasome in intact neurons (190 nM) relative to Kd (hRpn13 Pru domain [3]; ratio of literature proteasome concentration (ref [26]) to Kd for hRpn2 interaction with hRpn13): 15 fold
SMILES: CC[C@H](C)[C@H](NC(=O)[C@H](Cc1ccc(O)cc1)NC(=O)[C@H](CCC(=O)O)NC(=O)[C@H](Cc1ccccc1)NC(=O)[C@@H]1CCCN1C(=O)[C@H](CCC(=O)O)NC(=O)[C@@H]1CCCN1C(=O)[C@@H]1CCCN1C(=O)[C@H](CCC(=O)O)NC(=O)[C@@H]1CCCN1C(=O)[C@H](CCC(=O)O)NC(=O)[C@H](CCC(N)=O)NC(=O)[C@H](CCC(=O)O)NC(=O)[C@H](CCC(=O)O)NC(=O)[C@H](CCC(=O)O)NC(=O)[C@H](CCC(=O)O)NC(=O)[C@@H](NC(=O)[C@H](CCCCN)NC(=O)[C@@H]1CCCN1C(=O)CNC(=O)[C@H](Cc1c[nH]cn1)NC(=O)[C@H](C)NC(=O)[C@H](C)NC(=O)[C@@H](NC(=O)[C@@H]1CCCN1C(=O)[C@H](CCC(=O)O)NC(=O)[C@@H](NC(=O)[C@H](CC(C)C)NC(=O)[C@H](CCC(=O)O)NC(=O)[C@H](CCC(=O)O)NC(=O)[C@@H](NC(=O)[C@H](CC(=O)O)NC(=O)[C@H](CCC(=O)O)NC(=O)[C@H](CO)NC(=O)[C@@H](NC(=O)[C@H](CC(=O)O)NC(=O)[C@H](CO)NC(=O)CNC(=O)[C@@H]1CCCN1C(=O)CN)[C@@H](C)O)[C@@H](C)CC)C(C)C)C(C)C)[C@@H](C)CC)C(=O)N[C@@H](CC(=O)O)C(=O)N[C@@H](CC(=O)O)C(=O)O [hRpn2 (916–953)]
- amino acids with large effects on addition of hRpn13 Pru (hRpn13 Pru domain [1]; 1H,15N HSQC, 0.6 mM 15N labeled peptide, equimolar hRpn13 Pru): large effects for F948, E949, Y950, and I951
- amino acids with significant chemical shift perturbation (hRpn13 Pru domain [1]; CSP, 15N labeled peptide with equimolar unlabeled hRpn13 Pru): significant shifting was calculated for E943-I951
- average heteronuclear NOE enhancement value, 916–936, bound (hRpn13 Pru domain [2]; bound to hRpn13 Pru, 0.4 mM, 700 MHz, pH 6.5): -0.19
- average heteronuclear NOE enhancement value, E939-D953, hRpn13-bound (hRpn13 Pru domain [2]; bound to hRpn13 Pru, 0.4 mM, 700 MHz, pH 6.5, four second saturation): 0.58
- average heteronuclear NOE enhancement value, 916–936, free (hRpn13 Pru domain [2]; free peptide, 0.2 mM, 600 MHz, pH 6.5): -0.43
- average heteronuclear NOE enhancement value, E939-D953, free (hRpn13 Pru domain [2]; free peptide, 0.2 mM, 600 MHz, pH 6.5, four second saturation): -0.51
